# Yeast mating assay B: variants of the scFv Ab-14

From the AlphaSeq antibody data of Li et al. 2023 (doi:10.1038/s41467-023-39022-2), copy in the FLAb collection.

All variants were tested on one target, the spike HR2 peptide PDVDLGDISGINAS (SARS-CoV-2).

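Designed CDR sequences, proposed from the first random library and measured here. Several design methods are mixed in this list. AlphaSeq pools MATa yeast showing the antibodies with MATalpha yeast showing the peptide. After mating in shaken culture at 30 °C for 16 h, diploids were selected and their barcode pairs sequenced. A regression on co-assayed BCL2-family reference pairs converts the normalised counts of each replicate to an apparent Kd. The assay was run in six technical replicates.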

Each scFv is VH, three GGGGS repeats, VL, as in the parent Ab-14, and differs from it in the CDRs of the heavy chain only.
VH: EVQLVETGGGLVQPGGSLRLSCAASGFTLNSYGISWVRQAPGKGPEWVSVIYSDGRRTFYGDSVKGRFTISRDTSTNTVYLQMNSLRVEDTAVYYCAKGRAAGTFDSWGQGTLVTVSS
VL: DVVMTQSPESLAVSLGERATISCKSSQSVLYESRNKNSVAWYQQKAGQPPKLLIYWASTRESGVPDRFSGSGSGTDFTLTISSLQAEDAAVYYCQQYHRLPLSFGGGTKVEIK

Changes read parent residue, position, new residue, counted from the first residue of the VH shown.
This list holds designs with at most six substitutions.
Numbers give log10(Kd / nM), so 0 is 1 nM and 3 is 1 µM. Smaller is tighter.
Averages over replicates are reported, and they cover detected replicates only.
"nd" marks a missing value. The strain was present, yet no cells mated with the target were sequenced in that replicate, which points to weak or no binding.
Order: sorted from the lowest average up, undetected variants last.

* T28S+G61T+R100Q+A101E -> -0.55, -1.21, -1.34, 0.00, -1.61, -1.49 (mean -1.03)
* T28S+S53A+S107K -> 0.16, -0.84, -0.77, -0.12, 0.16, -1.09 (mean -0.42)
* T28D+S31T+G61H+A101T -> -0.23, -0.74, -0.43, -0.75, -0.10, 0.04 (mean -0.37)
* L29I+S63A -> -0.37, 0.14, -0.56, -0.62, -0.50, 0.34 (mean -0.26)
* T28D+G61V+R100Q -> -0.06, 0.31, -0.23, -0.91, -0.07, 0.24 (mean -0.12)
* T28E+S31E+A101N+S107T -> 0.30, -0.12, -0.14, -0.30, -0.08, -0.37 (mean -0.12)
* S31E+A101Q -> -0.10, -0.31, -0.24, 0.04, -0.12, 0.08; 0.30, 0.08, 0.02, 0.32, 0.06, 0.30 (mean 0.03)
* T28D+S31E+A101M -> 0.51, -0.21, 0.30, -0.04, -0.19, 0.18 (mean 0.09)
* T28S+G61A+S63N+R100K+A101T -> 0.52, 0.35, -0.01, -0.27, -0.18, 0.74 (mean 0.19)
* T28D+R56K+G61I+R100K+S107V -> 0.56, 0.32, 0.04, 0.05, 0.14, 0.37 (mean 0.25)
* T28M+R100Q+A101T+S107A -> 0.09, 0.44, 0.25, 0.20, 0.23, 0.47 (mean 0.28)
* S31E+G61S+R100E+S107K -> 0.22, -0.04, 0.64, 0.76, 0.14, 0.69 (mean 0.40)
* T28V+S53A+A101T -> 0.57, 0.20, 0.96, 0.31, -0.19, 0.64 (mean 0.41)
* T28S+R100K+A101Q -> 0.82, 0.24, 0.48, 0.47, 0.35, 0.71 (mean 0.51)
* T28E+G61Q+A101T+S107T -> 0.48, -0.06, 0.72, 0.40, 0.43, 1.12 (mean 0.52)
* T28S+R100D -> 0.72, 0.53, 0.51, 0.86, 0.66, 0.63; 0.89, 0.72, 0.67, 1.05, 0.70, 0.93 (mean 0.74)
* N30D+S31Q+G61I -> 1.36, nd, 0.74, nd, nd, nd (mean 1.05)
* G61T+R100Q+A101L -> 0.79, 1.28, 1.52, 0.38, 1.13, 1.25 (mean 1.06)
* N30D+S107R -> nd, 1.48, 1.16, nd, nd, 1.23 (mean 1.29)
* T28S+F59A+R100Q -> 1.52, 0.88, 0.96, 1.22, 1.73, 1.71 (mean 1.34)
* T28K+R100E+S107T -> 1.20, 1.59, 1.29, 0.78, 1.37, 1.91 (mean 1.36)
* G61A+S63F+S107Y -> nd, nd, nd, 1.42, nd, 1.36 (mean 1.39)
* G26K+G61D+R100Q+A101T -> nd, 1.52, nd, nd, nd, 1.40 (mean 1.46)
* R100W+A101T -> 1.17, 1.37, nd, 2.02, 1.53, nd (mean 1.52)
* F59A+D106E -> nd, nd, 1.04, 1.99, 2.14, 2.08 (mean 1.81)
* T28A+F59A+V64Y -> 2.19, 1.63, 1.92, nd, 2.10, nd (mean 1.96)
* T28G+G61I+R100Q -> 1.79, 1.68, 1.87, nd, 1.65, 3.48 (mean 2.09)
* T28S+S31E+S63R+A101T+D106V -> nd, 2.01, 2.59, 1.94, 2.13, 2.70 (mean 2.27)
* F27A+A101Q -> 2.55, 1.45, 2.74, 1.83, 3.46, nd (mean 2.41)
* N30E+G61T+T104H -> nd, nd, nd, nd, nd, nd
* T28N+S31K+I34S+A102M -> nd, nd, nd, nd, nd, nd
* G61E+G99L+D106N -> nd, nd, nd, nd, nd, nd
* T28W+S53A+G61S+A101Q+F105S -> nd, nd, nd, nd, nd, nd
* N30D+S31K+R57E+G103R+F105A+D106L -> nd, nd, nd, nd, nd, nd
* T28S+I51E+S53F+G99E+A102D+S107P -> nd, nd, nd, nd, nd, nd
* T28E+A101V+S107C -> nd, nd, nd, nd, nd, nd
* T28S+G99L -> nd, nd, nd, nd, nd, nd
* G61A+R100Q+S107L -> nd, nd, nd, nd, nd, nd
* G26I+N30D+F105A+D106L -> nd, nd, nd, nd, nd, nd
* L29C+S31Q+G33L+I34D+G61S+T104F -> nd, nd, nd, nd, nd, nd
* G61M+V64T+F105D+D106K -> nd, nd, nd, nd, nd, nd
* S31E+I51M+S53K+D54H+G61T+A101F -> nd, nd, nd, nd, nd, nd
* S31E+F59A+G61T+A101V+A102D+D106S -> nd, nd, nd, nd, nd, nd
* Y32F+R100E+G103A -> nd, nd, nd, nd, nd, nd
* R56H+G61E+A101W -> nd, nd, nd, nd, nd, nd
* T28E+R100V+A101H -> nd, nd, nd, nd, nd, nd
* T28Q+S31N+G61S+G103T+T104F -> nd, nd, nd, nd, nd, nd
* S31E+G33W+S53E+R100S+G103V+S107Q -> nd, nd, nd, nd, nd, nd
* T28A+G61E+D62N+D106N -> nd, nd, nd, nd, nd, nd
* R57K+S63N+G99W -> nd, nd, nd, nd, nd, nd

Picked from the list: the 8 lowest averages where every replicate gave a value.

changes,"log10 Kd, replicates","log10 Kd (nM), mean"
T28S+G61T+R100Q+A101E,"-0.55, -1.21, -1.34, 0.00, -1.61, -1.49",-1.03
T28S+S53A+S107K,"0.16, -0.84, -0.77, -0.12, 0.16, -1.09",-0.42
T28D+S31T+G61H+A101T,"-0.23, -0.74, -0.43, -0.75, -0.10, 0.04",-0.37
L29I+S63A,"-0.37, 0.14, -0.56, -0.62, -0.50, 0.34",-0.26
T28D+G61V+R100Q,"-0.06, 0.31, -0.23, -0.91, -0.07, 0.24",-0.12
T28E+S31E+A101N+S107T,"0.30, -0.12, -0.14, -0.30, -0.08, -0.37",-0.12
S31E+A101Q,"-0.10, -0.31, -0.24, 0.04, -0.12, 0.08; 0.30, 0.08, 0.02, 0.32, 0.06, 0.30",0.03
T28D+S31E+A101M,"0.51, -0.21, 0.30, -0.04, -0.19, 0.18",0.09

Some sequences occur more than once in the pool; their replicates are listed entry by entry, parted by semicolons.
In the paper, a design with two or fewer of six values counts as a poor binder.
The parent sequence was in this pool as ten entries: three were never detected, three once, and four in most replicates, with averages from 0.34 to 2.37.
A sequence measured in both rounds can read differently, since the two assays cover different ranges.
Nonspecific signal, from three strains lacking the peptide, appeared in 1% of pairings of all heavy chain designs, centred on 2.08 (5% of these signals below 0.84); values are not corrected for it.